This is an account of results in patent EP0787493A1, “Tetrahydroisoquinoline derivatives” (priority 1996, dated 1997).

For this assay, the target named is NMDA receptors. Kind of assay: 3H-MK801 (Dizocilpine) binding in vitro. The note with it: rat whole brain membranes, 5nM 3H-MK-801, glutamate, glycine and spermidine present. As to the method: 3H-MK801 (Dizocilpine) binding in vitro
The whole brain from 150-200g male rats, without cerebellum and without medulla oblongata was dissected on ice. The tissue was then homogenized with an Ultra-Turrax maximum speed during 30 seconds at 4°C in 50 volumes of cold Tris HCI 50mM, EDTA disodium 10mM, pH=7.4 buffer (wet weight/v). The homogenate was centrifuged at 48'000 x g (20'000 rpm, SS34, Sorvall RC5C) for 10 minutes. The pellet was rehomogenized with the same volume of buffer and the homogenate incubated at 37°C for 10 minutes. […]
The incubation was performed in the presence of 1nM glutamate, glycine and spermidine. […] Non specific binding was determined in presence of 100mM TCP. […] The air-dried filters were counted with 10ml of Ultima-gold (Packard) in a Tri-Carb 2500 TR scintillation counter after agitation.
The DPM were transformed in % of specific binding and these values were treated by a non linear regression calculation program (BINDING, H. Affolter, Switzerland) which provided the IC50 values for the low and high affinity binding sites (= concentrations producing half maximal inhibition at the respective sites). Each experiment was repeated at least three times and the final IC50 values were calculated as the mean +/-standard deviation of the individual experiments. […]

SMILES strings stand for the structures. Like-named read-outs stand apart in the source and are kept apart here.

For `COc1cc2c(cc1OC)C(CCc1ccc(Cl)cc1)N(C)CC2` (centres unmarked) [J], the IC50 (high affinity binding site, read-out: 3H-MK 801 / IC50 (µM) high) was 0.6 µM and the IC50 (low affinity binding site, read-out: 3H-MK 801 / IC50 (µM) low) came out at 107 µM.
